The list shows a part of the results, in another mix than the full data. Some results for these compounds are left out of this collection, so the calls shown say nothing about other tests. Calls of active or inactive are those of the source.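 Rule for the calls: active = inhibition at 20 µM, scaled per plate between control wells, above about 37% (limit read from the data); inactive = the rest.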
The molecules below were run against Tyrosine-protein phosphatase non-receptor type 5 (Homo sapiens) (UniProt P54829) (assay: STEP phosphatase inhibitors, primary screen, biochemical, fluorescence intensity, uHTS (AID 588621;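 note: 0% = DMSO with enzyme and substrate and 100% = substrate only without enzyme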)). Details: recombinant STEP, OMFP fluorogenic substrate, at 20 µM, stronger effect = higher value.
Method in brief: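 Material: STEP (striatal-enriched tyrosine phosphatase) enzyme, cell-free | Medium: 50 mM Bis-Tris pH 6.0 with 2.5 mM DTT and 0.005% Tween 20 | Read-out: Percent inhibition scaled to no-enzyme and uninhibited-enzyme controls, plate-pattern corrected | Signal: Fluorescence read at 480 nm ex / 540 nm em | Times: 20 min reaction, room temperature, in the dark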

Protein sequences, listed by entry. Tags and fused reporters are not part of them.
UniProt P54829, whole entry: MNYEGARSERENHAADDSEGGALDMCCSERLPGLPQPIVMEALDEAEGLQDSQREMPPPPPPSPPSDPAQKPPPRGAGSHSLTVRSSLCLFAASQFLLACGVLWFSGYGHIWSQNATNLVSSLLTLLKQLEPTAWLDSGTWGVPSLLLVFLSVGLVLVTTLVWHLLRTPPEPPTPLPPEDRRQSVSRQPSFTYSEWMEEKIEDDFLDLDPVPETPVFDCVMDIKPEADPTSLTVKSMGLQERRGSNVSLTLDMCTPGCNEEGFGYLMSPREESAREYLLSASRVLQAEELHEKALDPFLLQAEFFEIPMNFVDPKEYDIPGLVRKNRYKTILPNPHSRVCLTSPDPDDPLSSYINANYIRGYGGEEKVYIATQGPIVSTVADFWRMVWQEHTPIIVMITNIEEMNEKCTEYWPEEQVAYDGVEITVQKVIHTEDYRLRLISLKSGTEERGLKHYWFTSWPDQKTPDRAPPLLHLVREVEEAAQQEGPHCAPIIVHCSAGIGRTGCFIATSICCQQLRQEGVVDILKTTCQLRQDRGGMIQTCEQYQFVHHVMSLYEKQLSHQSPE

Row | SMILES | inhibition
1 | COc1ccc(Br)c(C(=O)NCC2(N3CCCCC3)CCCCC2)c1 | inactive: 2.9%
2 | C=C(C)C#CC(O)(C(=O)OC1CCN(C)CC1)c1ccccc1 (stereo unspecified) | inactive: 4.6%
3 | CN(C)c1cccc(C(=O)NCC2(N(C)C)CCCCC2)c1 | inactive: -2.5%
4 | CC(C)Oc1ccc(C(=O)NCC2(N(C)C)CCCCC2)cc1 | inactive: 0.4%
5 | O=C(OCCN1CCCC1)C(O)(c1ccccc1)c1ccccc1 | inactive: 1.6%
6 | O=C(OC1CN2CCC1CC2)C(CO)(c1ccccc1)c1ccccc1 (stereo unspecified) | inactive: -1.3%
7 | COc1cccc(C(=O)NCC2(N3CCCCC3)CCCCC2)c1 | inactive: -0.2%
8 | COc1ccc(Cl)cc1C(=O)NCC1(N(C)C)CCCCC1 | inactive: -0.4%
9 | O=C(NCC1(N2CCCCC2)CCCCC1)c1cccc(Cl)c1 | inactive: -2.6%
10 | CN(C)C1(CNC(=O)c2ccc(Br)cc2)CCCCC1 | inactive: -3%
11 | COc1cc(C(=O)NCC2(N(C)C)CCCCC2)c([N+](=O)[O-])cc1OC | inactive: -2.9%
12 | C=CCN1CCN(CCOC(=O)C(O)(c2ccccc2)c2ccccc2)CC1 | inactive: -0.6%
13 | O=C(NCC1(N2CCCCC2)CCCCC1)c1cc(F)c(F)cc1Cl | inactive: 1.1%
14 | Cc1cc(C(=O)NCC2(N3CCCCC3)CCCCC2)ccc1[N+](=O)[O-] | inactive: -3.3%
15 | CCN1CCCC(OC(=O)C2(O)c3ccccc3C=Cc3ccccc32)C1 (stereo unspecified) | inactive: -1.4%
16 | O=C(NCC1(N2CCCCC2)CCCCC1)c1cccc(Br)c1 | inactive: -1.4%
17 | COc1ccc(C(=O)NCC2(N(C)C)CCCCC2)cc1 | inactive: 1.3%
18 | Cc1ccccc1C(=O)NCC1(N2CCCCC2)CCCCC1 | inactive: 1%
19 | CN(C)C1CCCC1OC(=O)C(O)(c1ccccc1)c1ccccc1 (stereo unspecified) | inactive: 0.2%
20 | CN(C)c1ccc(C(=O)NCC2(N(C)C)CCCCC2)cc1 | inactive: -1%
21 | CC(C)N1C(=O)CC2(CCN(CCOC(=O)C(O)(c3ccccc3)c3ccccc3)CC2)C1=O | inactive: 0.3%
22 | CCN(CC)CC(C)C(C)OC(=O)C(O)(c1ccccc1)c1ccccc1 (stereo unspecified) | inactive: -1.1%
23 | COc1cc(SC)ccc1C(=O)NCC1(N(C)C)CCCCC1 | inactive: -0.2%
24 | Cc1ccc(C(=O)NCC2(N3CCCCC3)CCCCC2)cc1 | inactive: -0.1%
25 | O=C(NCC1(N2CCCCC2)CCCCC1)c1cc([N+](=O)[O-])ccc1Cl | inactive: 14.5%
26 | CN1[C@@H]2CC[C@H]1CC(OC(=O)C(O)(c1ccccc1)c1ccccc1)C2 (stereo partly specified) | inactive: -4%
